The target of one test is TAF1-BD1 (Homo sapiens, UniProt P21675). Nature of the test: TAF1-BD1 TR-FRET Binding Assay. As to conditions: read-out: TAF1-BD1 HTRF IC50. The method, then:
IC50 Measurements for Inhibitors Using TAF1-BD1 TR-FRET Binding Assay
His/Flag epitope tagged TAF1-BD11381-1497 was cloned, expressed, and purified to homogeneity. TAF1-BD binding and inhibition was assessed by monitoring the engagement of a biotinylated small molecule compound 1000 with the target using the TR-FRET assay technology (Perkin-Elmer). Specifically, in a 384 well ProxiPlate, TAF1-BDI (0.08 uM final) in 50 mM HEPES (pH 7.5; final), 50 mM NaCl (final), 1 mM TCEP (final), 0.1 mg/mL BSA (final), and 0.069 mM Brij-35 (final) was added either in the presence of DMSO (final 0.2% DMSO) or compound dilution series in DMSO. After a 10 minute incubation at room temperature, biotin-ligand (0.08 uM final) was added. After 10 minutes incubation at room temperature, a mixture Eu-W1024 Anti-6×His antibody (Perkin Elmer ADO 110) and SureLight™ Streptavidin-Allophycocyanin (SA-APC, Perkin Elmer CR130-100) were added to final concentrations of 0.2 nM antibody and 0.05 uM SA-APC, respectively. After forty minutes of equilibration at room temperature, the plates were read on an Envision instrument and IC50s calculated using a four parameter logistic model (XLFIT).

For the next test, the target named is TAF1-BD2 (Homo sapiens, UniProt P21675). The test can be described thus: TAF1-BD2 TR-FRET Binding Assay. To be noted: read-out: TAF1-BD2 HTRF IC50. The method, then:
IC50 Measurements for Inhibitors Using TAF1-BD2 TR-FRET Binding Assay
His/Flag epitope tagged TAF1-BD21504-1635 was cloned, expressed, and purified to homogeneity. TAF1-BD2 binding and inhibition was assessed by monitoring the engagement of a biotinylated small molecule compound 1000 with the target using the TR-FRET assay technology (Perkin-Elmer). Specifically, in a 384 well ProxiPlate, TAF1-BD2 (0.012 uM final) in 50 mM HEPES (pH 7.5; final), 50 mM NaCl (final), 1 mM TCEP (final), 0.1 mg/mL BSA (final), and 0.069 mM Brij-35 (final) was added either in the presence of DMSO (final 0.2% DMSO) or compound dilution series in DMSO. After a 10 minute incubation at room temperature, biotin-ligand (0.04 uM final) was added. After 10 minutes incubation at room temperature, a mixture Eu-W1024 Anti-6×His antibody (Perkin Elmer AD0110) and SureLight™ Streptavidin-Allophycocyanin (SA-APC, Perkin Elmer CR130-100) were added to a final concentration of 0.2 nM antibody and 0.025 uM SA-APC, respectively. After forty minutes of equilibration at room temperature, the plates were read on an Envision instrument and IC50s calculated using a four parameter logistic model (XLFIT).
A general note: In TR-FRET formats the signal depends on donor and acceptor labels being close together.

Usually IC50 stands for the concentration that gives 50% inhibition. Take `Cc1[nH]c2c(=O)n(C)cc(C#CC(O)(c3ccccc3)C(F)(F)F)c2c1-c1nnc(CN(C)C)o1` (stereo not shown) [Example 186, 3-[5-[(dimethylamino)methyl]-1,3,4-oxadiazol-2-yl]-2,6-dimethyl-4-(4,4,4-trifluoro-3-hydroxy-3-phenyl-but-1-ynyl)-1H-pyrrolo[2,3-c]pyridin-7-one]: the IC50 at TAF1-BD1 worked out at 484 nM; on TAF1-BD2, 68.7 nM.
For the molecule `Cc1[nH]c2c(=O)n(C)cc(C#CC(O)(c3ccccc3)C(F)(F)F)c2c1-c1nnc(C(C)C)o1` (stereo not shown) [Example 189, 3-(5-isopropyl-1,3,4-oxadiazol-2-yl)-2,6-dimethyl-4-(4,4,4-trifluoro-3-hydroxy-3-phenyl-but-1-ynyl)-1H-pyrrolo[2,3-c]pyridin-7-one], the IC50 worked out at 492 nM at TAF1-BD1 and 49.5 nM on TAF1-BD2.

The values are drawn from patent US10202378B2, “Therapeutic compounds and uses thereof” (GENENTECH, INC., priority 2015, dated 2019).
